Test results: US20220135678A1, “METHODS AND COMPOSITIONS TO IMPROVE THE SAFETY AND EFFICACY OF CELLULAR THERAPIES” (University of Southern California, priority 2019, published 2022)

Chains of the proteins cited; added tags and fusions are not shown. Lines headed by an entry give the natural chain unless they say otherwise; changes in a name come on top.
UniProt Q02223: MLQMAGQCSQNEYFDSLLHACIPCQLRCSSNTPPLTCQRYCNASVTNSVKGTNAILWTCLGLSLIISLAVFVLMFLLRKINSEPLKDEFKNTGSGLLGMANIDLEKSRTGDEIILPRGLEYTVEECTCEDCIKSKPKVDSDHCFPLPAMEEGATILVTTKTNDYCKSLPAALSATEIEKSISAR

What was measured:
[1] = test system: BCMA specific CAR, SIR, TFP and Ab-TCR; assay: Topanga assay: binding of BCMA-ECD-NLuc fusion protein to T cells expressing BCMA specific CAR, TFP, SIR and Ab-TCR; conditions: 293FT supernatant bound 45 minutes on ice, 48 hours post-infection
Procedure: T cells are activated using CD3/CD28 beads and infected with lentiviral vectors encoding BCMA specific CAR (SEQ ID NO: 1470), TFP (SEQ ID NO: 12186), SIR (SEQ ID NO: 3715) and Ab-TCR (SEQ ID NO: 4447). Forty-eight hours post-infection, the expression of BCMA specific CAR, SIR, TFP and Ab-TCR on the surface of T cells is detected using Topanga assay. For this purpose, 293FT supernatant containing secreted NLuc fusion protein collected 72 hours after transfection with the construct CD8SP-BCMA-ECD-GGSG-NLuc-4×Flag-2×Streptag-8×His (SEQ ID NO: 180) is bound to the lentiviral transduced T cells for 45 minutes on ice. Cells are washed twice with PBS and the bound NLuc activity is measured by addition of coelentrazine containing assay buffer. […] Essentially similar results are obtained when the CD8 signal peptide (CD8SP; SEQ ID NO: 15)) in the CD8SP-BCMA-ECD-GGSG-NLuc-4×Flag-2×Streptag-8×His construct (SEQ ID NO: 180) is replaced by GM-CSF signal peptide (SEQ ID NO: 14).

tBCMA = target: T1, tBCMA (Homo sapiens, UniProt Q02223); assay: Detection of tBCMA on SIR-T cells by binding of secreted NLuc fusion protein (NLuc activity); conditions: 100 μl 293FT supernatant, 2 washes, coelentrazine
T1 construct: CD8 signal peptide (N); expressed in transfected cells; host or cells: T cells transduced with a lentiviral vector
T1 sequence (Q02223 with tags, fused parts or gaps): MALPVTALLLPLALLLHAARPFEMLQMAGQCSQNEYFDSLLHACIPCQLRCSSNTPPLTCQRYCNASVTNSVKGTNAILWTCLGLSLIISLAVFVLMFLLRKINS
Procedure: T cells are infected with a lentiviral vector encoding a SIR targeting CD19 (SEQ ID NO: 3461) and coexpressing CD8SP-tBCMA (SEQ ID NO: 68) or GMCSF-SP-Q-tBCMA (SEQ ID NO: 69). The expression of the tBCMA on the transduced is detected by binding with the 293FT supernatant collected 48 hours after the transfection of the fusion construct CD8SP-BCMA-huC12A3-L3H3-(vL-vH)-GGSG-NLuc-4×FLAG-×2STREP-8×His (SEQ ID NO: 192). SIR-T cells are bound with 100 μl of supernatant containing the secreted BCMA-NLuc fusion protein and after 2 washes the NLuc activity is measured by addition of coelentrzine. […] The SIR-T cells are purified by immunostaining with a FITC-conjugated anti-human BCMA antibody and flow-sorting or by magnetic sorting using BCMA-antibody conjugated magnetic beads.

B1: CD8SP-BCMA-ECD-GGSG-NLuc-4×Flag-2×Streptag-8×His: secreted BCMA-ECD NLuc fusion protein in 293FT supernatant for detection of BCMA CAR-T cells (protein)
chain: MALPVTALLLPLALLLHAARPFEMLQMAGQCSQNEYFDSLLHACIPCQLRCSSNTPPLTCQRYCNASVTNSVKGTNATRGGSGVFTLEDFVGDWRQTAGYNLDQVLEQGGVSSLFQNLGVSVTPIQRIVLSGENGLKIDIHVIIPYEGLSGDQMGQIEKIFKVVYPVDDHHFKVILHYGTLVIDGVTPNMIDYFGRPYEGIAVFDGKKITVTGTLWNGNKIIDERLINPDGSLLFRVTINGVTGWRLCERILALEGGSWSHPQFEKDYKDDDDKGSDYKDDDDKGSDYKDDDDKGSDYKDDDDKAWSHPQFEKHHHHHHHHTSGSGEGRGSLLTCGDVEENPGPHMTEYKPTVRLATRDDVPRAVRTLAAAFADYPATRHTVDPDRHIERVTELQELFLTRVGLDIGKVWVADDGAAVAVWTTPESVEAGAVFAEIGPRMAELSGSRLAAQQQMEGLLAPHRPKEPAWFLATVGVSPDHQGKGLGSAVVLPGVEAAERAGVPAFLETSAPRNLPFYERLGFTVTADVEVPEGPRTWCMTRKPGA
bound NLuc activity on T cells expressing BCMA specific CAR, TFP, Ab-TCR and SIR as compared to control T cells or CD19-specific CAR T cells [1]: significant increase in NLuc activity

B2: CD8SP-BCMA-huC12A3-L3H3-(vL-vH)-GGSG-NLuc-4×FLAG-×2STREP-8×His: secreted BCMA-NLuc fusion protein in 293FT supernatant, used to detect tBCMA (protein)
chain: MALPVTALLLPLALLLHAARPDIVLTQSPATLSLSPGDRATISCRASESVTILGSHLIYWYQQKPGQPPRLLIQLASNVQTGVPARFSGSGSRTDFTLTISSVEPEDFAVYYCLQSRTIPRTFGQGTKLEIKRGGGGSGGGGSGGGGSQVQLVQSGPEVKKPGESVKISCKASGYTFRHYSMNWVKQAPGQGLKWMGRINTESGVPIYADDFKGRFSFTVDTSASTAYLEISSLTSEDTAVYFCSNDYLYSLDFWGQGTTLTVSSTRGGSGVFTLEDFVGDWRQTAGYNLDQVLEQGGVSSLFQNLGVSVTPIQRIVLSGENGLKIDIHVIIPYEGLSGDQMGQIEKIFKVVYPVDDHHFKVILHYGTLVIDGVTPNMIDYFGRPYEGIAVFDGKKITVTGTLWNGNKIIDERLINPDGSLLFRVTINGVTGWRLCERILALEGGSWSHPQFEKDYKDDDDKGSDYKDDDDKGSDYKDDDDKGSDYKDDDDKAWSHPQFEKHHHHHHHHTSGSGEGRGSLLTCGDVEENPGPHMTEYKPTVRLATRDDVPRAVRTLAAAFADYPATRHTVDPDRHIERVTELQELFLTRVGLDIGKVWVADDGAAVAVWTTPESVEAGAVFAEIGPRMAELSGSRLAAQQQMEGLLAPHRPKEPAWFLATVGVSPDHQGKGLGSAVVLPGVEAAERAGVPAFLETSAPRNLPFYERLGFTVTADVEVPEGPRTWCMTRKPGA
NLuc activity bound to SIR-T cells expressing tBCMA as compared to control T cells (tBCMA): increase in NLuc activity
